Only a part is listed here, and it is no random draw. Active and inactive are the calls of the source.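 The calls were made as follows: active = Her2 level under about 52% in both replicate screens, with viability over 70% of control (limit read from the data); inconclusive = Her2 under the limit in one screen only, or viability under 70%; inactive = Her2 level above the set limit.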
Each molecule was assayed against Receptor tyrosine-protein kinase erbB-2 (Homo sapiens) (UniProt P04626) (assay: Her2 expression decrease, cell viability multiplex – SKBR3 breast tumor cells, AlphaScreen, ATP viability, primary screen (AID 461;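 also: lower value means less Her2 protein in the cells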)). Details: 18-24 h, at 10 µM, hits give low values.

Chains of the proteins cited; added tags and fusions are not shown.
UniProt P04626, whole entry: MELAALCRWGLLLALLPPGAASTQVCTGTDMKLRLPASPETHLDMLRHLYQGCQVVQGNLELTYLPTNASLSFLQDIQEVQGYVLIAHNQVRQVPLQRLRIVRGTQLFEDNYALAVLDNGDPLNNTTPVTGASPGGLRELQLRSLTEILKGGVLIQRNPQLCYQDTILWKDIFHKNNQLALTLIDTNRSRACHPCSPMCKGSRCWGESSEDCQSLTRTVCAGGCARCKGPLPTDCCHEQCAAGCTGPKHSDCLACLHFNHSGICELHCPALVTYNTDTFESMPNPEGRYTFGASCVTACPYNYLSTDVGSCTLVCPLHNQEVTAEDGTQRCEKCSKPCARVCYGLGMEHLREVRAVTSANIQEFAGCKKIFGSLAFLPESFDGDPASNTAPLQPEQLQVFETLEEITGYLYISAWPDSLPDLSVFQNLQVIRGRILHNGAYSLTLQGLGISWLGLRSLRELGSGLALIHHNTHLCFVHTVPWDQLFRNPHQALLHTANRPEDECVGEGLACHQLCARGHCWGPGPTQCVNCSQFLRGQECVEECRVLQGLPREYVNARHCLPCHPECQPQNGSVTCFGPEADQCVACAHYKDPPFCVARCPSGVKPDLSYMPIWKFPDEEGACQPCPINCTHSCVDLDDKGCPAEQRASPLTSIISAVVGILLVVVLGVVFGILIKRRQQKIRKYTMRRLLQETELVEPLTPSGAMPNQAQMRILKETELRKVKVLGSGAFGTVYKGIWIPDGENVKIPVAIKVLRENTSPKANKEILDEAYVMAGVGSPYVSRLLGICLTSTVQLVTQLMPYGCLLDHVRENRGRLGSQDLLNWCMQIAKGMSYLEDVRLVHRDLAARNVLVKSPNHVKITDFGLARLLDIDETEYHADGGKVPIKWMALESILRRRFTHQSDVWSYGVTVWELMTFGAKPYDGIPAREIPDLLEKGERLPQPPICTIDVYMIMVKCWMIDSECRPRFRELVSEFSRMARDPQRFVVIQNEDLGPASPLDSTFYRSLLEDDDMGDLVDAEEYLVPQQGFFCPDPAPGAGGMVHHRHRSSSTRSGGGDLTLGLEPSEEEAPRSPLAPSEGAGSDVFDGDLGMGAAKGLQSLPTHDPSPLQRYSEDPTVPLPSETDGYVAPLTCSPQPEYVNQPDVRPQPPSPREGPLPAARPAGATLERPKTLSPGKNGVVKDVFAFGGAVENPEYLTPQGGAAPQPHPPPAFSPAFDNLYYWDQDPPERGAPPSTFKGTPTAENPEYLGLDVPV

Structure (SMILES)	Her2 level
Fc1ccccc1NC1CCN(Cc2ccccc2)CC1	inactive: 91%

From PubChem BioAssay AID461 (SRMLSC, 2006)
